From patent US8771724B2, “Percutaneous absorption enhancer and transdermal preparation using the same” (TOA EIYO Ltd., priority 2008, dated 2014)

Test: Permeation test, enhancing effect on percutaneous absorption in solution system
Details: ratio with enhancer / control
Procedure: A permeation test was carried out based on the following procedure. First, an excised skin (Yucatan miniature swine or hairless mouse) was placed in a vertical diffusion cell in which temperature was kept at 37° C., and a receptor phase was filled with 7 mL of a phosphate-buffered saline (PBS, a pH of 7.5). The whole was left to stand still for one hour. […] Then, the test was started. […] Note that after each of the collections, an equivalent amount of PBS was supplemented into the receptor phase. Each PBS collected from the receptor phase was measured for a drug concentration by an HPLC method. […] Further, the slant of a permeation curve at the time when the permeation rate reached a steady state was used to calculate a skin permeation rate (μg/hr/cm^2).
An enhancing effect on drug permeation was evaluated for the case where a 1% isopropyl myristate solution was used as a control and for the case where 1% each of n-octyl-β-D-thioglucopyranoside and dioctyl sodium sulfosuccinate was added.

## CCOC(=O)[C@H](CCc1ccccc1)N[C@@H](C)C(=O)N1[C@H](C(=O)O)C[C@H]2CCCC[C@@H]21 [Trandolapril, trandolapril]
  Percutaneous absorption enhancing action (Example/Comparative Example), cumulative permeation amount for 24 hours: 12 times
  Percutaneous absorption enhancing action (Example/Comparative Example), skin permeation rate: 54 times
